Sequences of proteins named here, by UniProt entry; tags and fusion partners are left off. A change or cut given only in a name is not applied to a line headed by its entry.
UniProt P06276, whole entry, looked up: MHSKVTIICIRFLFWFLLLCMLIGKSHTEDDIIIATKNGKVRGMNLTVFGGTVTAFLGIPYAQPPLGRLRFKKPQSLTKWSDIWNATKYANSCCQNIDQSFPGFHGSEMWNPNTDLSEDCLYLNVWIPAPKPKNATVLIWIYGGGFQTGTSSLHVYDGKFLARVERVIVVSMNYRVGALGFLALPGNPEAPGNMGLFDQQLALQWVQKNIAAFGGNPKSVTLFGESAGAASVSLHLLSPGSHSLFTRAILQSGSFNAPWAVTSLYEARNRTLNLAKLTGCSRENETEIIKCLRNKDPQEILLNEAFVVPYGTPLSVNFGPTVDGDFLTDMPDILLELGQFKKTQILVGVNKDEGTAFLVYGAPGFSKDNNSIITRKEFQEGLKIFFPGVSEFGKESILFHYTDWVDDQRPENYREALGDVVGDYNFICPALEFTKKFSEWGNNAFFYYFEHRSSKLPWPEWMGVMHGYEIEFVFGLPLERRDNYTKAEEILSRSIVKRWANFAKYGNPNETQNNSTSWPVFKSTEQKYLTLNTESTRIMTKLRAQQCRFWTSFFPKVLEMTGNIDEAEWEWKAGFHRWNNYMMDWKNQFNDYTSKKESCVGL
UniProt P22303: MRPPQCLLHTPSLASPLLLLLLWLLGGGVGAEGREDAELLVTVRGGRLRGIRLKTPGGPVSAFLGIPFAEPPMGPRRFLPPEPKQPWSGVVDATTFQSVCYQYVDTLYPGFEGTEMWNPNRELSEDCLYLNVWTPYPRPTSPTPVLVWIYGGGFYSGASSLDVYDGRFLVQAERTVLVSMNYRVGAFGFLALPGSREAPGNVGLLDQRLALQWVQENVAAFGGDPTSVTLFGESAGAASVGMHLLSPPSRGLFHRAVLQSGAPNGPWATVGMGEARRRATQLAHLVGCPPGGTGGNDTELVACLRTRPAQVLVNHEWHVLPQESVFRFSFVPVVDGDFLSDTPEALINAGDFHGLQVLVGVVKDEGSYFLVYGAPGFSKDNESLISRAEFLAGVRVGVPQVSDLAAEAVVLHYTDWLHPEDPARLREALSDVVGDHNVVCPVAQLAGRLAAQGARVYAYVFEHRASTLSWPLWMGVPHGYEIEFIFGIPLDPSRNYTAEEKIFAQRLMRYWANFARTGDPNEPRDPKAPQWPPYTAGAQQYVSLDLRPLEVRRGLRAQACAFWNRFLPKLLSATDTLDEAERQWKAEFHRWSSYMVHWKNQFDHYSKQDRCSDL

According to ChEMBL document CHEMBL1759923, “Preparation, in vitro screening and molecular modelling of symmetrical bis-quinolinium cholinesterase inhibitors--implications for early myasthenia gravis treatment” (Bioorg Med Chem Lett, 2011):

Molecular target: Cholinesterases; ACHE & BCHE (Homo sapiens) (UniProt P06276+P22303)
Test: Selectivity index, ratio of IC50 for human erythrocytes recombinant AChE to IC50 for human plasmatic BChE

SMILES | Selectivity Index
C=CC[N+](C)(C)c1ccc(CCC(=O)CCc2ccc([N+](C)(C)CC=C)cc2)cc1 | 11800
CCN(CC)C(C)CN1c2ccccc2Sc2ccccc21 (stereo not drawn) | 0.002
c1ccc2c(c1)ccc[n+]2CCCCCCCCCC[n+]1cccc2ccccc21 | 100
